According to patent publication US10682371B2, “Small molecule conjugates specifically activated in tumor microenvironment for targeting and use thereof” (priority 2014, dated 2020):

How the values were obtained:
[1] = tested on: D121 lung tumor cells; format: in vivo, C57 mice
Protocol: 1) D121 lung tumor cells were purchased from ATCC. Cells were cultivated in DMEM culture solution containing 10% fetal bovine serum at 37° C. and 5% CO2. The cells were passaged for every three days and cells within the 15th passage were used.
(§1) 2) Tumor immunization. 5×10^5 D121 lung cancer cells (purchased from ATCC) which were killed by irradiation were intraperitoneally injected to mice. The mice were injected for 3 times, once every two weeks. After immunization, mice were injected with tumor cells and the drugs were administered weekly for 4 weeks.
3) Production of tumor. At day 32, 10^6 live lung tumor cells were subcutaneously injected to the back of the C57 mice immunized by tumor. Treatment began when the tumor grew to 0.3-0.4 cm.
as §1, with “4 weeks. In table 16 below the immune group was immuned with D121 lung tumor cells and the group without dead D121 lung tumor cells was injected with physiological saline as controls.” for “4 weeks.”
3) Production of tumor. After immunization (4 weeks later), 10^6 live lung tumor cells were subcutaneously injected to the back of the C57 mice immunized by tumor. Treatment began when the tumor grew to 0.3-0.4 cm. Tumor size (mm^3) were noted and tumor inhibition rates were calculated.
as §1, with “4 weeks. In the table below the immune group was immuned with D121 lung tumor cells and the group without dead D121 lung tumor cells was injected with physiological saline as controls.” for “4 weeks.”
3) Production of tumor. […]

[2] = tested on: Human heart; format: biochemical; details: Human heart homogenate; 1 mg/ml compound
[3] = tested on: Human breast cancer MDA-MB435 tumor tissue homogenate; format: biochemical; details: Human breast cancer MDA-MB435 tumor tissue homogenate (30 μg/ml); 1 mg/ml compound
Protocol: At 37 °C, sample compounds were added into 100 μg acidized tumor tissue homogenates (pH6.0) in a concentration of 1 mg/ml.
(§2) At 37 °C, sample compounds were added into 100 μg acidized human breast cancer (MDA-MB435) tumor tissue homogenates (pH6.0) in a concentration of 1 mg/ml.
[…], sample compounds were added into 100 μg acidized tumor tissue homogenates (pH6.0) in a concentration of 1 mg/ml.
as §2
At 37 °C, sample compounds were added into 100 μg acidized tumor tissue homogenates in a concentration of 1 mg/ml.
In the experiments, at 37 °C, compounds were added into proteases in 100 μg acidized tumor tissue homogenates in a concentration of 1 mg/ml. […] Meanwhile certain compounds produced in the screening were compared and their activation efficiency in same tissue was analyzed.
At 37° C., compounds were added into proteases in 100 μg acidized tumor tissue homogenates in a concentration of 1 mg/ml.

[4] = tested on: tumor CD8+ T cells; format: in vivo; details: D121 immunized C57 mice, 13.2 μmol/kg; ratio of CD8 positive cells in CD45 positive cells of tumor
Protocol: (§3) 4) Analysis on tumor CD8+ T cells. The tumor tissue was homogenated and individual cells in the tumor were filtered, separated and washed by buffer twice, then cultivated with the leucocyte common antigen CD45-PE and CD8-FITC marked antibodies for 1 hour at ambient temperature. The cells were washed by phosphate buffer containing 1% fetal bovine serum twice and then analyzed for the ratio of the T lymphocyte antigen (CD8) positive cells in the leucocyte common antigen (CD45) positive cells by flow cytometry.
as §3, with “CD45-PE and T-lymphocyte antigen CD8-FITC marked” for “CD45-PE and CD8-FITC marked”, “flow cytometry. […]” for “flow cytometry.”
4) Analysis on tumor CD8+ T cells. […] The cells were washed by phosphate buffer containing 1% fetal bovine serum twice and then analyzed for the ratio of the T lymphocyte antigen (CD8) positive cells in the leucocyte common antigen (CD45) positive cells by flow cytometry. […]

[5] = D121 immunized C57 mice, 13.2 μmol/kg weekly, PDL1 antibody 5 μg/kg where combined, Day 18

4-N—(N—(N—(N-(2-(2-methoxyethoxy) acetyl-L-alanyl)-L-alanyl)-L-asparaginyl)-amino benzyl alcohol-camptothecin-carbonic acid diester [Compound S2]
Inhibitory rate on tumor Day 18 [1, 5]: 72.03
Size of tumor (mm^3) Day 18 [1, 5]: 379.67 ± 214.45 mm^3
Treatment effects on C57 mice, in words ([1]; compared to the control group and the other treatment groups): greatly improved
Activation Efficiencies (%) [2]: 0.5%
Activation Efficiencies (%) [3]: 78.4%
CD8: D45 (%) [4]: 17.7%
